The list shows a part of the results, in another mix than the full data. Inconclusive results are not listed. The source made the active and inactive calls. Calls follow the shape of the dose curve; as a rule, active = well fitted curve in the direction sought with a large enough effect; inconclusive = small, poorly fitted or top-dose-only effect, or another doubt; inactive = no such curve, though single readings can be large; an effect the other way counts as inactive or inconclusive.
Experiments:
[1] = Quantitative High-Throughput drug screen in 47 multiple myeloma cell lines against the NCATS MIPE library collection: JIM1_ECACC cell viability assay (AID 1918964); conditions: JIM1 myeloma viability, CellTiter-Glo ATP luminescence, 48 h; at 45.8 µM (top of the series)
Description: (§1) PI: Beverly A. Mock Ph.D.
(§2) Laboratory of Cancer Biology and Genetics,
(§3) Center for Cancer Research, National Cancer Institute,
(§4) National Institute of Health, Bethesda, Maryland
(§5) Drug resistance and disease progression are common in multiple myeloma (MM) patients, underscoring the need for new therapeutic combinations. […] We hypothesized that effective combinations would reduce MYC expression and enhance p16 activity. […] These preclinical data identify potentially useful drug combinations for evaluation in drug-resistant MM and reveal potential mechanisms of combined drug sensitivity.
(§6) Described herein is the primary MIPE qHTS used to cherrypick compounds. Validated compounds were then further tested for potential synergistic activiy.
[1] […]
(§7) 5; Detector; 425V; Luminescence; Viewlux PerkinElmer. […]
(§8) 1. […] Briefly, the corresponding myeloma cell lines were screened in 1,536-well plates with 500 cells, 5-uL per well for inhibition of cell viability (assessed by measuring ATP levels with CellTiterGlo). […]
(§9) 5. Signal was measured as median relative luminescence units on a ViewLux (PerkinElmer) multiplate reader. […]

[2] = Quantitative High-Throughput drug screen in 47 multiple myeloma cell lines against the NCATS MIPE library collection: INA6_PLB cell viability assay (AID 1918965; also: nearly all actives have a fitted effect of over 55% in size); conditions: INA6 myeloma viability, CellTiter-Glo ATP luminescence, 48 h; at 45.8 µM (top of the series)
Procedure, shortened: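 Steps: seed 500 cells per well; pin-transfer MIPE 4.0 library; incubate 48 h at 37C, 5% CO2, humidified; add CellTiter-Glo, 5 min room temperature; read luminescence.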

[3] = Quantitative High-Throughput drug screen in 47 multiple myeloma cell lines against the NCATS MIPE library collection: JJN3_DSMZ cell viability assay (AID 1918966; also: nearly all actives have a fitted effect of over 50% in size); conditions: JJN3 myeloma cells viability, CellTiter-Glo ATP, 48 h; at 45.8 µM (top of the series)
Procedure, shortened: (§10)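 Myeloma cell lines, 500 cells per well, exposed to MIPE 4.0 library compounds for 48 h at 37C, 5% CO2. Viability from ATP by CellTiter-Glo luminescence; normalised to DMSO (100%) and media-only (0%) wells.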

[4] = Quantitative High-Throughput drug screen in 47 multiple myeloma cell lines against the NCATS MIPE library collection: Karpas25_ECACC cell viability assay (AID 1918968; also: nearly all actives have a fitted effect of over 35% in size); conditions: Karpas25 myeloma viability, CellTiter-Glo ATP, 48 h; at 45.8 µM (top of the series)
Procedure, shortened: as §10

[5] = Quantitative High-Throughput drug screen in 47 multiple myeloma cell lines against the NCATS MIPE library collection: KMS12PE_JCRB cell viability assay (AID 1918972); conditions: KMS12PE myeloma viability, CellTiter-Glo ATP, 48 h; at 45.8 µM (top of the series); also: nearly all actives have a fitted effect of over 30% in size
Description: as §1, §2, §3, §4, §5, §6
[1] […]
as §7, §8, §9

[6] = Quantitative High-Throughput drug screen in 47 multiple myeloma cell lines against the NCATS MIPE library collection: KMS20_JCRB cell viability assay (AID 1918973); conditions: CellTiter-Glo ATP, 48 h; at 45.8 µM (top of the series); also: nearly all actives have a fitted effect of over 45% in size
Description: as §1, §2, §3, §4, §5, §6
[1] […]
as §7, §8, §9

[7] = Quantitative High-Throughput drug screen in 47 multiple myeloma cell lines against the NCATS MIPE library collection: KMS26_JCRB cell viability assay (AID 1918975); conditions: KMS26 myeloma cells viability, CellTiter-Glo ATP, 48 h; at 45.8 µM (top of the series); also: nearly all actives have a fitted effect of over 45% in size
Description: as §1, §2, §3, §4, §5, §6
[1] […]
as §7, §8, §9

[8] = Quantitative High-Throughput drug screen in 47 multiple myeloma cell lines against the NCATS MIPE library collection: MMM1_PLB cell viability assay (AID 1918976); conditions: MM.1S-type MMM1 myeloma cells viability, CellTiter-Glo, 48 h; at 45.8 µM (top of the series); also: nearly all actives have a fitted effect of over 35% in size
Description: as §1, §2, §3, §4, §5, §6
[1] […]
as §7, §8, §9

[9] = Quantitative High-Throughput drug screen in 47 multiple myeloma cell lines against the NCATS MIPE library collection: MOLP8_DSMZ cell viability assay (AID 1918977); conditions: MOLP8 myeloma viability, CellTiter-Glo ATP luminescence, 48 h; at 45.8 µM (top of the series); also: nearly all actives have a fitted effect of over 45% in size
Procedure, shortened: (§11)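 Inhibition of viability over 48 h was scored by ATP content (CellTiter-Glo) in 500-cell wells. Zero and full viability were defined by media-only and DMSO-only wells.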

[10] = Quantitative High-Throughput drug screen in 47 multiple myeloma cell lines against the NCATS MIPE library collection: NCIH929_DSMZ cell viability assay (AID 1918978); conditions: NCI-H929 myeloma viability, CellTiter-Glo ATP, 48 h; at 45.8 µM (top of the series); also: nearly all actives have a fitted effect of over 35% in size
Procedure, shortened: as §11

CCOC(=O)C(=O)CBr
inactive: viability (% of DMSO) [1] 64.3% | viability (% of control) [2] 137% | viability, % of DMSO [3] 113% | viability (% of control) [4] 97.5% | viability [5] 94.1% | viability (% of DMSO) [6] 101% | viability (% of DMSO) [7] 120% | viability (% of control) [8] 108% | viability (% of control) [9] 88.9% | viability, % of control [10] 99.3%
